Measured values published in US7273846B2, “Selective melanin-concentrating hormone type-1 receptor agonists” (priority 2002, dated 2007).

Chains of the proteins cited; added tags and fusions are not shown. Lines headed by an entry give the natural chain unless they say otherwise; changes in a name come on top.
UniProt Q99705: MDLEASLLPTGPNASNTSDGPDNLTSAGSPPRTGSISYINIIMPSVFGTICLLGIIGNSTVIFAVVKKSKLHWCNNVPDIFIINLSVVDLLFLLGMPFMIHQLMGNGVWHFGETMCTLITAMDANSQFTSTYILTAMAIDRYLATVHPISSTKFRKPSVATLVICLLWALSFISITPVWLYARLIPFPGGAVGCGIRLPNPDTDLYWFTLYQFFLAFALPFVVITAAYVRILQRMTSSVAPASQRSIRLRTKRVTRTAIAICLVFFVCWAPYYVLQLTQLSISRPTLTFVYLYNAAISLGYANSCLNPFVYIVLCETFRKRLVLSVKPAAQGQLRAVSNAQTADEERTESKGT
UniProt Q969V1: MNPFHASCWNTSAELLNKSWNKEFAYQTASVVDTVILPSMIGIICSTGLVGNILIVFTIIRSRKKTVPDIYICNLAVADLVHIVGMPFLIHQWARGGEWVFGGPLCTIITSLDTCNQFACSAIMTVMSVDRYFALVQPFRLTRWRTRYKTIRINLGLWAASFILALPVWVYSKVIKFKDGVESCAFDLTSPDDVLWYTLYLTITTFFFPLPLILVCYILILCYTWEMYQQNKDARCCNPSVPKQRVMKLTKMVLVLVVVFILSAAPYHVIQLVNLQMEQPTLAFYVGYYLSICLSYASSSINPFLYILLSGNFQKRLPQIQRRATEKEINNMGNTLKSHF

Experiments:
MCH-1R [1] = target: T1, MCH-1R (Homo sapiens, UniProt Q99705)
MCH-2R [2] = target: T2, MCH-2R (Homo sapiens, UniProt Q969V1); assay: Aequorin bioluminescence functional assay, 293AEQ17/MCH-2R cells; format: cell-based; set-up: expressed in transfected cells; concentration or dose not given beside the values; conditions: human MCH = 100
Excerpt: (§1) The aequorin bioluminescence assay is a reliable test for identifying G-protein-coupled receptors that couple through the G protein subunit family consisting of Gq and G11. Gq and G11 coupling leads to the activation of phospholipase C, mobilization of intracellular calcium, and activation of protein kinase C.
Stable cell lines expressing either the MCH-1R or the MCH-2R and the aequorin reporter protein were used.
(§2) The cells were harvested, washed once in ECB medium, and resuspended to 500,000 cells/mL. 100 μL of cell suspension (corresponding to 5×10^4 cells) was then injected into the test plate containing the hMCH peptides, and the integrated light emission was recorded over 30 seconds, in 0.5-s units. 20 μL of lysis buffer (0.1% final Triton X-100 concentration) was then injected and the integrated light emission recorded over 10 seconds, in 0.5-s units. The “fractional response” values for each well were calculated by taking the ratio of the integrated response to the initial challenge to the total integrated luminescence including the Triton X-100 lysis response.

MCH-1R [3] = target: T1, MCH-1R; assay: Aequorin bioluminescence functional assay, 293AEQ17/MCH-1R cells; format: cell-based; set-up: expressed in transfected cells; conditions: for MCH-1R Activation %: human MCH = 100, activation at 10 μM concentration; for EC50: aequorin, 293AEQ17/MCH-1R cells
Description: as §1
Stable cell lines expressing either the MCH-1R or the MCH-2R and the aequorin reporter protein were used. The assay was performed using a Luminoskan RT luminometer (Labsystems Inc., Gaithersburg, Md.) controlled by custom software written for a Macintosh PowerPC 6100.
as §2

MCH-2R [4] = target: T2, MCH-2R; assay: Radioligand binding assay (SPA), MCH-2R; conditions: MCH-2R IC50, [125I]-[Phe13,Tyr19]-hMCH SPA, COS or CHO MCH-2R membranes

Row | SMILES | Selectivity 2/1 (MCH-2R/MCH-1R IC50 binding ratio) (MCH-1R [1]) | MCH-2R Activation % (MCH-2R [2]) [%] | Selectivity 2/1 (MCH-2R/MCH-1R EC50 activity ratio) (MCH-1R [3]) | MCH-1R Activation % (MCH-1R [3]) [%] | EC50 (MCH-1R [3]) [µM] | IC50 (MCH-2R [4]) [µM]
1 | CSCC[C@@H]1NC(=O)[C@@H](NC(=O)[C@@H](CCC(=O)O)NC(C)=O)CSSC[C@@H](C(N)=O)NC(=O)[C@@H]2CCCN2C(=O)[C@H](CCCNC(=N)N)NC(=O)[C@H](Cc2ccc(O)cc2)NC(=O)[C@H](C(C)C)NC(=O)[C@H](CCCNC(=N)N)NC(=O)CNC(=O)[C@H](CC(C)C)NC1=O [SEQ. ID. NO. 12] | 430 | 20 | 11 | 100 |  | 
2 | CSCC[C@@H]1NC(=O)[C@@H](NC(=O)[C@H]2CCCN2C(C)=O)CSSC[C@@H](C(N)=O)NC(=O)[C@@H]2CCCN2C(=O)[C@H](CCCNC(=N)N)NC(=O)[C@H](Cc2ccc(O)cc2)NC(=O)[C@H](C(C)C)NC(=O)[C@H](CCCNC(=N)N)NC(=O)CNC(=O)[C@H](CC(C)C)NC1=O [SEQ. ID. NO. 8] | 790 | 82 | 7 | 120 |  | 
3 | CSCC[C@@H]1NC(=O)[C@@H](NC(=O)[C@@H](CC(N)=O)NC(C)=O)CSSC[C@@H](C(N)=O)NC(=O)[C@@H]2CCCN2C(=O)[C@H](CCCNC(=N)N)NC(=O)[C@H](Cc2ccc(O)cc2)NC(=O)[C@H](C(C)C)NC(=O)[C@H](CCCNC(=N)N)NC(=O)CNC(=O)[C@H](CC(C)C)NC1=O [SEQ. ID. NO. 10] | 700 | 42 | 22 | 113 | 0.26 | 
4 | CCCC[C@@H](NC(C)=O)C(=O)N[C@H]1CSSC[C@@H](C(N)=O)NC(=O)[C@@H]2CCCN2C(=O)[C@H](CCCNC(=N)N)NC(=O)[C@H](Cc2ccc(O)cc2)NC(=O)[C@H](C(C)C)NC(=O)[C@H](CCCNC(=N)N)NC(=O)CNC(=O)[C@H](CC(C)C)NC(=O)[C@H](CCSC)NC1=O [SEQ. ID. NO. 7] | 370 | 69 | 6.5 | 115 |  | 1.46
5 | CSCC[C@@H]1NC(=O)[C@@H](NC(=O)[C@@H](CO)NC(C)=O)CSSC[C@@H](C(N)=O)NC(=O)[C@@H]2CCCN2C(=O)[C@H](CCCNC(=N)N)NC(=O)[C@H](Cc2ccc(O)cc2)NC(=O)[C@H](C(C)C)NC(=O)[C@H](CCCNC(=N)N)NC(=O)CNC(=O)[C@H](CC(C)C)NC1=O [SEQ. ID. NO. 11] | 4700 | 39 | 38 | 114 | 0.16 | 
